# Laboratory results taken from PubChem BioAssay AID602277 (University of Pittsburgh Molecular Library Screening Center, 2012).
# Only a part is listed here, and it is no random draw. The source made the active and inactive calls.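 Rule for the calls: active = inhibition of the reporter signal at or above 50%; inactive = inhibition below 50%.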
# Assay: inhibitors of poly I:C-induced TLR3 signaling, primary screen, cell-based, poly I:C stimulus, luciferase, 10K MLSCN set (AID 602277)
# Conditions: HEK293-TLR3 RL24 IRF3 luciferase reporter, at 10 µM, active compounds read high
row,SMILES,inhibition
1,O=P(Nc1nccs1)(c1ccccc1)c1ccccc1,inactive: 20.7%
2,Cc1nn(-c2ccccc2)c2c1P(=O)(N1CCOCC1)N(C)C(c1ccccc1)=N2 (stereo not given),inactive: -9.1%
3,CCOP1(=S)c2c(C)nn(CCC#N)c2N=C(c2ccccc2F)N1C (stereo not given),inactive: -5.62%
4,O=C(COc1ccccc1)OC1CN2CCC1CC2 (stereo not given),inactive: 5.42%
5,COP1(=S)c2c(C)nn(CCC#N)c2N=C(c2ccc(F)cc2)N1C (stereo not given),inactive: 18.4%
